## scFv variants of Ab-95 (light chain) against a SARS-CoV-2 spike peptide

Binding partner: SARS-CoV-2 spike HR2 peptide, sequence PDVDLGDISGINAS.

Ab-95 is the parent antibody, in scFv form: VH, then a (GGGGS)3 linker, then VL. The heavy chain is unchanged in all variants.
VH: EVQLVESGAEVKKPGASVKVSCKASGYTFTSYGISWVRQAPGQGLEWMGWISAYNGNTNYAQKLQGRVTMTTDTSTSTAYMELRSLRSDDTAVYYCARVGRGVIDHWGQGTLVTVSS
VL: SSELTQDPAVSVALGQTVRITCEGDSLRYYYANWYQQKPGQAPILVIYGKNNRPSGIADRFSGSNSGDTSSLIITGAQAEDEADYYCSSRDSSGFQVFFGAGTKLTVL

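The starting antibody came from a phage panning campaign against this peptide. The library (AAYL52) carries one to three amino acid substitutions per variant, with no insertions or deletions. The scFvs were displayed on barcoded MATa yeast, the peptide on MATalpha yeast. Pairs that bind mate more often; barcode pairs of the diploids are counted by sequencing. A regression on co-assayed BCL2-family reference pairs converts the normalised counts of each replicate to an apparent Kd. The assay was run in three technical replicates.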

Variants are written as CDR1, CDR2 and CDR3 of the light chain (limits as in the source). Parent: EGDSLRYYYAN, GKNNRPS, SSRDSSGFQVF.
The Kd shown is the geometric mean over detected replicates; a lower Kd is a better binder.
Where no diploid with the target was found in any replicate, the entry reads "nd": below detection, most likely a poor binder, though not proof of it.
Three control strains display no target. For library AAYL52, 28% of the pairings with them gave a signal, with a median of 8.2 µM and one signal in twenty below 800 nM, so weak values seen in few replicates may be background.

| CDR-L1 | CDR-L2 | CDR-L3 | apparent Kd | seen in |
|---|---|---|---|---|
| EGDSLRYYYAN | EKNNRPS | SSRDPSGFQNF | 11 µM | 2 of 3 |
| EGDSERYYYAS | GKNNRPS | STRDSSGFQVF | 8.6 µM | 3 of 3 |
| EGGKLRYYYAN | GKFNRPS | SSRDSSGFQVF | 280 nM | 3 of 3 |
| EGDSLRYYYAN | GISNRPS | SSRDSSGFQVF | 4.5 µM | 3 of 3 |
| EGDLLRAYYAN | GKNNRPS | SSRDSSGFQVF | nd | 0 of 3 |
| EGDSLRYKYAN | GPNNRPS | SSRDSSGFQVF | 6.5 nM | 3 of 3 |
| EGDKLRYYYAS | GKNNRPS | SSRDSSGPQVF | nd | 0 of 3 |
| EGDSLRYYYAW | GKNNRPS | SSRDSRGFQVH | 8.9 µM | 1 of 3 |
| EGDSLCYYYAN | GKNNRPS | SSRDSHGFQVI | 1.0 µM | 3 of 3 |
| EGDELRYYYAN | GKNCVPS | SSRDSSGFQVF | 45 µM | 1 of 3 |
| EGDSLRYYIAQ | GKNNRPS | SSRDSSGFQCF | 13 µM | 1 of 3 |
| EGDSLRYYYAN | GKNNRPS | SSTDSSGFQVA | 18 µM | 1 of 3 |
| EGDFLRYRYAN | GKNNRPS | SSRDSSYFQVF | 960 nM | 3 of 3 |
| EMDSLRYYYAN | GKNNRPS | SSTDSSGFHVF | 2.7 µM | 1 of 3 |
| EGDSLRYYYAN | GKNNRPS | SSVKSSGFQVF | 450 nM | 2 of 3 |
| EGDSLRYYTAN | GKVSRPS | SSRDSSGFQVF | 3.9 µM | 3 of 3 |
| EFDSLCYYYAN | GKNVRPS | SSRDSSGFQVF | 5.2 µM | 3 of 3 |
| EGDSLRWVYAN | GKNNRPS | SSRDSSGYQVF | 53 nM | 3 of 3 |
| EGDSLRYYYWN | TKNNEPS | SSRDSSGFQVF | 450 nM | 1 of 3 |
| EGDTLRYYYAN | GKNNRPY | QSRDSSGFQVF | 27 µM | 2 of 3 |
| EGDPLRYYYAN | GDGNRPS | SSRDSSGFQVF | 230 nM | 3 of 3 |
| EGDSGRYFLAN | GKNNRPS | SSRDSSGFQVF | 88 nM | 1 of 3 |
| EGDSLRYYYAN | HKNQRPS | SSRESSGFQVF | 3.4 µM | 3 of 3 |
| EGISLRYYYAN | GKNTRPS | SSRDGSGFQVF | 740 nM | 3 of 3 |
| EGDSLRYYYAN | GKNNCGS | SSRDSSGFQLF | 4.7 µM | 3 of 3 |
| EGDSLRYYYAN | GKNNRPS | SQRDTTGFQVF | 71 nM | 3 of 3 |
| EGDSLRYPYAM | GKNNRPS | SSRDSSGFGVF | 26 µM | 1 of 3 |
| EGDSLRYYYHN | GFNNKPS | SSRDSSGFQVF | 13 µM | 1 of 3 |
| ETDSLRYYYAN | GKNNRPS | SSRDSSAFSVF | 28 µM | 3 of 3 |
| EGDSLRYLYAN | GKENRCS | SSRDSSGFQVF | 6.0 µM | 1 of 3 |
| EGDWLRYYYAN | GANNRPS | SSRDSSGFSVF | 1.3 µM | 3 of 3 |
| EGDSLLYYYAN | GKENRPS | SSVDSSGFQVF | 6.6 µM | 1 of 3 |
| EGDSLRVYYAN | GKGNRPS | SSRDCSGFQVF | 1.3 µM | 3 of 3 |
| EGDSLRYYYAT | GKNNRPS | SSRDSMGFMVF | nd | 0 of 3 |
| EGDSLNYYYAN | HKNNRPS | SSRDSIGFQVF | 5.1 µM | 1 of 3 |
| EGDTRRYYYAN | GKNNRPS | SSRDSSGFQVF | nd | 0 of 3 |
| EGDSLRYYYAN | GKNNRPS | SSRDSTVFQVW | 56 µM | 2 of 3 |
| EGDNLPYYYAN | GKNNRPS | SSRDSSGFQHF | nd | 0 of 3 |
| EGDSLRYYYAF | GDNNRPS | QSRDSSGFQVF | nd | 0 of 3 |
| ENDSLRYYYAN | GKNNRPS | SSRESSGFQVF | 17 µM | 2 of 3 |
| EGDSLRAYYAN | GKVNRPS | SSRDYSGFQVF | 4.6 µM | 3 of 3 |
| EGDSTRYYYAN | GKNNRSS | SSRWSSGFQVF | nd | 0 of 3 |
| EGDSLRYYYAG | GKNNRPS | SSRGPSGFQVF | nd | 0 of 3 |
| EGDSLRYYYAN | GKNKRPS | SSRDSSGFQVE | 3.8 µM | 3 of 3 |
| EGDQLRYPYAN | GKNNRVS | SSRDSSGFQVF | 130 nM | 3 of 3 |
| EGEDLRYYYAN | GKNNRPS | SSRDSSGFQVG | 290 nM | 3 of 3 |
| ECDSLRYYYAN | GKNNRPS | NSRDHSGFQVF | 1.7 µM | 3 of 3 |
| NGDSLRYIYAN | GKNARPS | SSRDSSGFQVF | 910 nM | 3 of 3 |
| EGDSLRYYYEP | GKNNRPS | SSRDSSGFQLF | nd | 0 of 3 |
| EGDSLRYYLAN | DKNNRPS | SSRDSFGFQVF | 4.1 µM | 1 of 3 |
| EGDSLRHQYAN | GKNNRPS | SYRDSSGFQVF | 140 nM | 3 of 3 |
| EGDSLRFYYAN | GKENRPS | SSRDPSGFQVF | 1.2 µM | 3 of 3 |
| EGDSLRYYYAN | GKNNRPE | SSRPSSGFGVF | 3.2 µM | 2 of 3 |
| EGDSLRYYLAS | GENNRPS | SSRDSSGFQVF | 1.3 µM | 2 of 3 |
| EFCSLWYYYAN | GKNNRPS | SSRDSSGFQVF | 5.9 µM | 1 of 3 |
| ECFSLRYYYAN | GKNNRPS | SSRDSSGFQRF | 660 µM | 1 of 3 |
| AGDSLRYYCAN | GKNNHPS | SSRDSSGFQVF | 460 nM | 3 of 3 |
| EGCSLRYYDAN | GKNNRPS | SSRRSSGFQVF | 12 µM | 3 of 3 |
| EGDSLRYYEAN | GKNNRPS | SSSDSSGFQVF | 4.7 µM | 2 of 3 |
| EGDSLRYYIAN | GKNNRPG | SSRDCSGFQVF | 450 nM | 3 of 3 |
| EGDSLRYYYAN | GSNNRTS | SSRDSSGFLVF | 28 µM | 1 of 3 |
| EGDSLRYYYHN | GKNNEPS | SSRDSSGFAVF | nd | 0 of 3 |
| EGDSLRFYYAW | YKNNRPS | SSRDSSGFQVF | 300 µM | 1 of 3 |
| EGDSLRYYPAN | GYNNRPS | SSRDSSMFQVF | 6.1 µM | 2 of 3 |
| EGDSLRPYYAN | GKNNRPS | SSHDSSGFQCF | nd | 0 of 3 |
| EGDSLRYYYHN | GKNNRPS | PSRDSSGMQVF | 40 µM | 3 of 3 |
| ENDSLRYTYAN | GKNNRPS | SSRDSSGMQVF | 1.5 µM | 2 of 3 |
| EGCSLRYYYAN | GKNNRPS | SSRASSGFQTF | 740 µM | 1 of 3 |
| EGDSCRGYYAN | GKNNHPS | SSRDSSGFQVF | 570 nM | 3 of 3 |
| EGDWLRYYYAN | GKNNRPS | SSRDDSGFHVF | 2.7 µM | 3 of 3 |
| EGWSLRYYFAN | GKNNRPI | SSRDSSGFQVF | 9.8 µM | 3 of 3 |
| EGDTLRYYYAN | GKNNRPI | SSRDSSGVQVF | 2.0 µM | 3 of 3 |
| EGDSLRYNYAN | GKNNRPH | SSRDSSGDQVF | 13 nM | 3 of 3 |

The first 10 entries again:

| CDR-L1 | CDR-L2 | CDR-L3 | apparent Kd | seen in |
|---|---|---|---|---|
| EGDSLRYYYAN | EKNNRPS | SSRDPSGFQNF | 11 µM | 2 of 3 |
| EGDSERYYYAS | GKNNRPS | STRDSSGFQVF | 8.6 µM | 3 of 3 |
| EGGKLRYYYAN | GKFNRPS | SSRDSSGFQVF | 280 nM | 3 of 3 |
| EGDSLRYYYAN | GISNRPS | SSRDSSGFQVF | 4.5 µM | 3 of 3 |
| EGDLLRAYYAN | GKNNRPS | SSRDSSGFQVF | nd | 0 of 3 |
| EGDSLRYKYAN | GPNNRPS | SSRDSSGFQVF | 6.5 nM | 3 of 3 |
| EGDKLRYYYAS | GKNNRPS | SSRDSSGPQVF | nd | 0 of 3 |
| EGDSLRYYYAW | GKNNRPS | SSRDSRGFQVH | 8.9 µM | 1 of 3 |
| EGDSLCYYYAN | GKNNRPS | SSRDSHGFQVI | 1.0 µM | 3 of 3 |
| EGDELRYYYAN | GKNCVPS | SSRDSSGFQVF | 45 µM | 1 of 3 |

For reference, the parent read 200 nM as the reference entry and 180 nM as a member of this library.

The measurements come from Engelhart et al. 2022 (doi:10.1038/s41597-022-01779-4) through the FLAb antibody collection.